For one data set, the system named is MCF-7 cells. The data set can be described thus: Cytotoxicity of GrB/IgG constructs. Format: cell-based. Particulars: MCF-7, do not express Her2. The text has this:
The constructs above were expressed in mammalian cells from a bicistronic expression vector arranged such that the heavy and light chain antibody polypeptides (or fusions thereof) were secreted. Assembled antibody fusion constructs were purified from the cell media.

The test system of a further data set is MDA MB453. The data set can be described thus: In vitro cytotoxic effects of GrB-based fusions, crystal violet. It is filed as cell-based, human. Particulars: Table 11, MDA MB453, 72 h exposure.
In a further data set the test system is eB-1. The data set is described as above. It is filed as cell-based, human. Particulars: Table 11, eB-1, 72 h exposure.
Data set [1] in a line: Enzymatic assay of GrB component, continuous colorimetric assay. Format: biochemical. Particulars: substrate BAADT, 25° C., native GrB as standard. The procedure:
The enzymatic activity of the GrB component was determined in a continuous colorimetric assay using N-α-t-butoxycarbonyl-L-alanyl-L-alanyl-L-aspartyl-thiobenzylester (BAADT) as a specific substrate (Liu et al., 2003). Assays consisted of commercial human GrB (Enzyme Systems Products, Livermore, Calif.) or GrB-based fusion proteins in BAADT at 25° C. The change in absorbance at 405 nm was measured on a Thermomax plate reader (Columbia, Md.). Increases in sample absorbance were converted to enzymatic rates by using an extinction coefficient of 13,100 cm^−1 M^−1 at 405 nm. The specific activity of GrB-based fusion proteins was calculated using native GrB as the standard.

In another data set the test system is SKBR3. The experiment in a line: Cytotoxic effects of GrB/4D5 fusion constructs with and without a translocation domain. It is filed as cell-based. The conditions noted are these: SKBR3, Her2 Exp. High. The text has this: (§1) Further GrB expression constructs were developed and tested.
(§2) These constructs were expressed and tested.

Data set [2] concerns NCI-N87. The description is as above. The conditions noted are these: NCI-N87, Her2 Exp. High. It is filed as cell-based.
Text: as §1, §2

Another data set deals with Me-180. Described as above. Format: cell-based. The conditions noted are these: Me-180, Her2 Exp. none.
Text: as §1, §2

The next data set concerns MDA-MB-453. The data set is described as above. Format: cell-based. The conditions noted are these: MDA-MB-453, Her2 Exp. High.
Text: as §1, §2

The test system of a further data set is SKOV3. The description is as above. It is filed as cell-based. The conditions noted are these: SKOV3, Her2 Exp. High.
Text: as §1, §2

For data set [3], the system named is NCI-N87. The experiment in a line: In vitro cytotoxic effects of GrB-based fusions, crystal violet. Format: cell-based. Particulars: Table 11, NCI-N87, 72 h exposure.
A further data set concerns Me180. Described as above. It is filed as cell-based, human. The conditions noted are these: Table 11, Me180, 72 h exposure.
In a further data set the test system is Calu3. The data set is described as above. It is filed as cell-based. Particulars: Table 11, Calu3, 72 h exposure.
The next data set deals with MDA MB435. The data set is described as above. Format: cell-based. The conditions noted are these: Table 11, MDA MB435, 72 h exposure.
In a further data set the test system is Her2/neu-positive cells. The data set can be described thus: In vitro cytotoxic effects of GrB-based fusions, summary over tumor cell lines. Particulars: read-out: IC50 / cytotoxic dose; 72 h exposure, summary of Table 11.

trastuzumab [Herceptin]: in the data set on MCF-7 cells, the IC50 is over 1000 nM.
Consider “GrB/4D5: GrB-G4S/218-4D5(Vl-VH); GrB fused to scFv 4D5 without peptide 26”, for which the IC50 in the data set on MDA MB453 was 436 nM; in the data set with eB-1, 551 nM; with SKBR3, over 200 nM; in the data set on NCI-N87 [2], over 200 nM; in the data set on Me-180, over 200 nM; in the data set with MDA-MB-453, over 200 nM. The IC50 is over 200 nM with SKOV3; 629 nM in the data set on NCI-N87 [3]; over 750 nM with Me180; 242 nM in the data set on Calu3; over 750 nM in the data set with MDA MB435; over 200 nM with Her2/neu-positive cells. Besides, the GrB enzymatic activity in data set [1] is reported as 1.54×10^5 U/μmoL.
